# Data reported in patent US7976880B2, “Pregnane glycoside compositions and Caralluma extract products and uses thereof” (priority 2003, dated 2011).
# Test system: subjects
# Assay: Toxicity and side effects of daily dosages in subjects
# Details: dosages of 10 mg to 1500 mg per day
substance,measurement,value
caratuberside,Toxicity or side effects,do not exhibit any toxicity or side effects except for the transient effects experienced by some subjects
